Test results published in US20100209345A1, “Fluorinated Ligands for Targeting Peripheral Benzodiazepine Receptors” (Australian Nuclear Science & Technology Organisation, priority 2006, published 2010).

Legend:
[1] = Biodistribution of 18F-labelled tracers in rats; format: in vivo; details: corrected for decay of 18F
[2] = target: central benzodiazepine receptors; test: In vitro binding, [3H]-Flumazenil, brain cortex membrane preparation; details: read-out: CBR IC50, [3H]-Flumazenil (2 nM), 25° C., 45 min

## CN(C(=O)Cc1c(-c2ccc(OCCC[18F])cc2)nc2c(Cl)cc(Cl)cn12)c1ccccc1 [PBR147*, 2-(2-(4-(3-fluoropropoxy)phenyl)-6,8-dichloroimidazo[1,2-a]pyridin-3-yl)-N-methyl-N-phenylacetamide]
[1]; 15 min
  Biodistribution: Adrenals: 7.59 ± 1.30 % ID/g
  Biodistribution: Bladder: 0.61 ± 0.15 % ID/g
  Biodistribution: Blood: 0.63 ± 0.08 % ID/g
  Biodistribution: Bone: 0.94 ± 0.05 % ID/g
  Biodistribution: Brain: 0.43 ± 0.05 % ID/g
  Biodistribution: GIT: 0.98 ± 0.15 % ID/g
  Biodistribution: Heart: 6.53 ± 0.38 % ID/g
  Biodistribution: Kidney: 4.75 ± 0.75 % ID/g
  Biodistribution: Liver: 1.88 ± 0.16 % ID/g
  Biodistribution: Lungs: 26.34 ± 3.04 % ID/g
  Biodistribution: Muscle: 0.78 ± 0.09 % ID/g
  Biodistribution: Olfactory bulbs: 0.58 ± 0.09 % ID/g
  Biodistribution: Pancreas: 2.12 ± 0.16 % ID/g
  Biodistribution: Skin: 0.45 ± 0.03 % ID/g
  Biodistribution: Spleen: 8.07 ± 1.11 % ID/g
  Biodistribution: Stomach: 0.41 ± 0.12 % ID/g
  Biodistribution: Testes: 0.23 ± 0.02 % ID/g
  Biodistribution: Thymus: 0.76 ± 0.12 % ID/g
  Biodistribution: Thyroid: 7.23 ± 1.35 % ID/g
[1]; 30 min
  Biodistribution: Adrenals: 8.47 ± 1.46 % ID/g
  Biodistribution: Bladder: 0.58 ± 0.05 % ID/g
  Biodistribution: Blood: 0.34 ± 0.06 % ID/g
  Biodistribution: Bone: 1.18 ± 0.08 % ID/g
  Biodistribution: Brain: 0.26 ± 0.04 % ID/g
  Biodistribution: GIT: 1.14 ± 0.04 % ID/g
  Biodistribution: Heart: 5.69 ± 0.42 % ID/g
  Biodistribution: Kidney: 3.82 ± 0.45 % ID/g
  Biodistribution: Liver: 1.37 ± 0.38 % ID/g
  Biodistribution: Lungs: 18.00 ± 2.29 % ID/g
  Biodistribution: Muscle: 0.64 ± 0.19 % ID/g
  Biodistribution: Olfactory bulbs: 0.48 ± 0.09 % ID/g
  Biodistribution: Pancreas: 1.88 ± 0.24 % ID/g
  Biodistribution: Skin: 0.51 ± 0.06 % ID/g
  Biodistribution: Spleen: 7.25 ± 1.13 % ID/g
  Biodistribution: Stomach: 0.40 ± 0.06 % ID/g
  Biodistribution: Testes: 0.21 ± 0.02 % ID/g
  Biodistribution: Thymus: 0.63 ± 0.11 % ID/g
  Biodistribution: Thyroid: 7.43 ± 1.00 % ID/g
[1]; 60 min
  Biodistribution: Adrenals: 8.45 ± 0.84 % ID/g
  Biodistribution: Bladder: 0.58 ± 0.12 % ID/g
  Biodistribution: Blood: 0.23 ± 0.03 % ID/g
  Biodistribution: Bone: 1.49 ± 0.16 % ID/g
  Biodistribution: Brain: 0.16 ± 0.01 % ID/g
  Biodistribution: GIT: 1.44 ± 0.29 % ID/g
  Biodistribution: Heart: 5.82 ± 0.24 % ID/g
  Biodistribution: Kidney: 3.68 ± 0.28 % ID/g
  Biodistribution: Liver: 1.08 ± 0.14 % ID/g
  Biodistribution: Lungs: 11.36 ± 0.97 % ID/g
  Biodistribution: Muscle: 0.55 ± 0.11 % ID/g
  Biodistribution: Olfactory bulbs: 0.27 ± 0.03 % ID/g
  Biodistribution: Pancreas: 1.66 ± 0.13 % ID/g
  Biodistribution: Skin: 0.49 ± 0.06 % ID/g
  Biodistribution: Spleen: 6.98 ± 0.29 % ID/g
  Biodistribution: Stomach: 0.64 ± 0.27 % ID/g
  Biodistribution: Testes: 0.22 ± 0.01 % ID/g
  Biodistribution: Thymus: 0.69 ± 0.08 % ID/g
  Biodistribution: Thyroid: 8.17 ± 1.71 % ID/g
[1]; 4 hours
  Biodistribution: Adrenals: 9.30 ± 0.55 % ID/g
  Biodistribution: Bladder: 0.80 ± 0.05 % ID/g
  Biodistribution: Blood: 0.13 ± 0.01 % ID/g
  Biodistribution: Bone: 2.56 ± 0.03 % ID/g
  Biodistribution: Brain: 0.09 ± 0.01 % ID/g
  Biodistribution: GIT: 2.71 ± 0.10 % ID/g
  Biodistribution: Heart: 6.09 ± 0.54 % ID/g
  Biodistribution: Kidney: 3.26 ± 0.16 % ID/g
  Biodistribution: Liver: 0.57 ± 0.02 % ID/g
  Biodistribution: Lungs: 5.62 ± 0.24 % ID/g
  Biodistribution: Muscle: 0.44 ± 0.04 % ID/g
  Biodistribution: Olfactory bulbs: 0.24 ± 0.09 % ID/g
  Biodistribution: Pancreas: 0.95 ± 0.14 % ID/g
  Biodistribution: Skin: 0.57 ± 0.04 % ID/g
  Biodistribution: Spleen: 4.79 ± 0.31 % ID/g
  Biodistribution: Stomach: 0.83 ± 0.17 % ID/g
  Biodistribution: Testes: 0.28 ± 0.02 % ID/g
  Biodistribution: Thymus: 0.81 ± 0.08 % ID/g
  Biodistribution: Thyroid: 6.44 ± 0.45 % ID/g
[2]
  IC50: > 4 µM
